Paper PMC3792221 (Biomolecules & Therapeutics, 2012)

Amino acid sequences for entries named in this document (tags omitted).
UniProt P21396, whole entry: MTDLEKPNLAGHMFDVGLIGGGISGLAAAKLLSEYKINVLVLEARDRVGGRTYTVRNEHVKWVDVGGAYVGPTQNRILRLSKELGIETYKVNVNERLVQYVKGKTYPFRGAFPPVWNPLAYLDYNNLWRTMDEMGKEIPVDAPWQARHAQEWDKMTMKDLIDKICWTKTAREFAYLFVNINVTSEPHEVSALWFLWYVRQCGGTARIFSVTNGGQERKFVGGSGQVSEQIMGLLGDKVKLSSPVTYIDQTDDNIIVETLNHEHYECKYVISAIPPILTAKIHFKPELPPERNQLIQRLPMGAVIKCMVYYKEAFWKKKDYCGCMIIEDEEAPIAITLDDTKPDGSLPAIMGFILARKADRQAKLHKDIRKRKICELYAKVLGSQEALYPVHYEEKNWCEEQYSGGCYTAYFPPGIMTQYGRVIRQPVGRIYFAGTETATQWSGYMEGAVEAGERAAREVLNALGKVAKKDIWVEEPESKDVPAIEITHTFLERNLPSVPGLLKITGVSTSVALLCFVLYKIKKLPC

Molecular target: MAO-A (rat brain mitochondrial MAO) (Rattus norvegicus, UniProt P21396)
Assay: MAO-A inhibition assay in vitro
Assay type: biochemical
Conditions: IC50 value MAO-A, Table 1; 1 mM serotonin substrate

## CC(C)NNC(=O)c1ccncc1 [Iproniazid, iproniazid, reference compound]
  IC50: 40 µM
